{"sequences": {"note": "The chains behind the UniProt entries cited, without tags or fusion partners. Residues count along the entry.", "UniProt P08253, 110-660": "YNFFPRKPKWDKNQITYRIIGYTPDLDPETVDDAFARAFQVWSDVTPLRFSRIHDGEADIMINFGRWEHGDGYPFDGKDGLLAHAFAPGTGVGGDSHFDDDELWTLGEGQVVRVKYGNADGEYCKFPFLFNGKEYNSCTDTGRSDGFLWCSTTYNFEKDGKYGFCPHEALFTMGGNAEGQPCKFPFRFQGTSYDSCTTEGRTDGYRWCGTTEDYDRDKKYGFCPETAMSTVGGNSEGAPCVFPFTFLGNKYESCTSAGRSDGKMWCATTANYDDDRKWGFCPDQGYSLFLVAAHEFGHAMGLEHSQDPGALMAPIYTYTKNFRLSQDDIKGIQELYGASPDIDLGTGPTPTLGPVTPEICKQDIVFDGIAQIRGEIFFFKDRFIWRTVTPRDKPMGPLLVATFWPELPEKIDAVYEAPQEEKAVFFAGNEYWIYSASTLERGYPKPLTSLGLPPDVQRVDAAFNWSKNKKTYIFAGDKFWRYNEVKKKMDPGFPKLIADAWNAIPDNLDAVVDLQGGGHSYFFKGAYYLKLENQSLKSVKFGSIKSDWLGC"}, "source": "patent US10682371B2", "about": "“Small molecule conjugates specifically activated in tumor microenvironment for targeting and use thereof” (priority 2014, dated 2020)", "key": {"[1]": {"system": "tumor tissue homogenates", "type": "biochemical", "description": "(§1) At 37 °C, sample compounds were added into 100 μg acidized tumor tissue homogenates (pH6.0) in a concentration of 1 mg/ml.\n(§2) […], sample compounds were added into 100 μg acidized tumor tissue homogenates (pH6.0) in a concentration of 1 mg/ml.\n(§3) At 37 °C, sample compounds were added into 100 μg acidized tumor tissue homogenates in a concentration of 1 mg/ml.\n(§4) In the experiments, at 37 °C, compounds were added into proteases in 100 μg acidized tumor tissue homogenates in a concentration of 1 mg/ml. […] Meanwhile certain compounds produced in the screening were compared and their activation efficiency in same tissue was analyzed.\n(§5) At 37° C., compounds were added into proteases in 100 μg acidized tumor tissue homogenates in a concentration of 1 mg/ml."}, "[2]": {"system": "Human colon cancer HT-29 tumor tissue homogenate", "type": "biochemical", "settings": "Human colon cancer HT-29 tumor tissue homogenate (30 μg/ml); 1 mg/ml compound", "description": "as §1, §2, §3, §4, §5"}, "[3]": {"system": "D121 lung tumor cells", "type": "in vivo", "settings": "D121 immunized C57 mice, 13.2 μmol/kg weekly, PDL1 antibody 5 μg/kg where combined", "description": "1) D121 lung tumor cells were purchased from ATCC. Cells were cultivated in DMEM culture solution containing 10% fetal bovine serum at 37° C. and 5% CO2. The cells were passaged for every three days and cells within the 15th passage were used.\n(§6) 2) Tumor immunization. 5×10^5 D121 lung cancer cells (purchased from ATCC) which were killed by irradiation were intraperitoneally injected to mice. The mice were injected for 3 times, once every two weeks. After immunization, mice were injected with tumor cells and the drugs were administered weekly for 4 weeks.\n3) Production of tumor. At day 32, 10^6 live lung tumor cells were subcutaneously injected to the back of the C57 mice immunized by tumor. Treatment began when the tumor grew to 0.3-0.4 cm.\nas §6, with “4 weeks. In table 16 below the immune group was immuned with D121 lung tumor cells and the group without dead D121 lung tumor cells was injected with physiological saline as controls.” for “4 weeks.”\n3) Production of tumor. After immunization (4 weeks later), 10^6 live lung tumor cells were subcutaneously injected to the back of the C57 mice immunized by tumor. Treatment began when the tumor grew to 0.3-0.4 cm. Tumor size (mm^3) were noted and tumor inhibition rates were calculated.\nas §6, with “4 weeks. In the table below the immune group was immuned with D121 lung tumor cells and the group without dead D121 lung tumor cells was injected with physiological saline as controls.” for “4 weeks.”\n3) Production of tumor. […]"}, "[4]": {"system": "Human breast cancer MDA-MB231 cells", "assay": "animal or person", "type": "in vivo, nude mice", "settings": "for Inhibitory rate on tumor (%) Day 10 / Inhibitory rate on tumor (%) Day 24: MDA-MB231, nude mice, IV 13.2 μmol/kg once weekly for four weeks; for inhibition in vivo at 13.2 µmol/kg: Mus musculus, MDA-MB-231, iv, 912 h, read-out: Inhibitory rate on tumor (Day38)", "description": "1) Human breast cancer MDA-MB231 cells were purchased from American type culture collection (ATCC) and identified according the specification provided by ATCC. Cells were cultivated in […] (DMEM culture medium) containing 10% fetal bovine serum at 37° C. and 5% CO2. The cells were passaged for every three days and cells within the 15th passage were used.\n2) Production of tumor. 5×10^6 MDA-MB231 cells were subcutaneously injected to the back of the nude mice. Mice were randomly grouped after the tumor reached at least 100 mm^3. Then treatment began and the day on which the treatment began was day 1.\n3) Course of treatment. […] The drugs were administered once weekly for four weeks.\nWhen R1 is 2-(2-Methoxyethoxy)Acetyl, and R3 is Ala, activation study and efficacy study were carried out by using compounds having different cleavable linker. The study methods are identical to those in Examples 10, 11 and 12. The in vitro activation efficiency was tested by asparagine endopeptidase and the tumor inhibition rate was tested by using human breast cancer MDA-MB231 model. […]"}, "[5]": {"molecular_target": "T1, asparagine endopeptidase (Homo sapiens, UniProt Q99538)", "T1 sequence (Q99538 26-323 limits assumed)": "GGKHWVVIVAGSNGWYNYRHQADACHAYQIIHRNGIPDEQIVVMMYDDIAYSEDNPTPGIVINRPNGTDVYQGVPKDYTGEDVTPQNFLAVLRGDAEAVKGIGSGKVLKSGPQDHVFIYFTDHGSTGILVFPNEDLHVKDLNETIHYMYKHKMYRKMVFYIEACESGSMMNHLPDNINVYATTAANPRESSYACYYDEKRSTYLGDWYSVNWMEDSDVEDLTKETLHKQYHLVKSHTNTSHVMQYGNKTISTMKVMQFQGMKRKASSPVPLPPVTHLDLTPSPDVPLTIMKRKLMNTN", "settings": "S1-S6, 1 mg/ml; 10 μg/ml acidified asparagine endopeptidase; 37°", "description": "Reduction of reactant and increase of product were detected by HPLC, thereby comparing the activation efficiency of these compounds.\nWhen R1 is 2-(2-Methoxyethoxy)Acetyl, and R3 is Ala, activation study and efficacy study were carried out by using compounds having different cleavable linker. The study methods are identical to those in Examples 10, 11 and 12. The in vitro activation efficiency was tested by asparagine endopeptidase and the tumor inhibition rate was tested by using human breast cancer MDA-MB231 model."}, "[6]": {"system": "cathepsin"}, "[7]": {"molecular_target": "metalloprotease MMP2 (Homo sapiens, UniProt P08253)"}}}
{"smiles": "COc1cccc2c1C(=O)c1c(O)c3c(c(O)c1C2=O)C[C@@](O)(C(C)=O)C[C@@H]3O[C@H]1C[C@H](NC(=O)OCc2ccc(NC(=O)[C@H](CC(N)=O)NC(=O)[C@H](C)NC(=O)[C@H](C)NC(=O)CCCCCN3C(=O)C=CC3=O)cc2)[C@H](O)[C@H](C)O1", "note": "[Compound S5, 4-N—(N—(N—(N-(6-maleimidocaproyl)-L-alanyl)-L-alanyl)-L-asparaginyl)-amino benzyl alcohol-daunorubicin-carbamate]", "values": [{"measurement": "Activation efficiency by tumor tissue, in words", "setting": "[1]", "value": "very high activation efficiency"}, {"measurement": "Activation Efficiencies (%)", "setting": "[2]", "value": 78.4, "unit": "%"}, {"measurement": "Inhibitory rate on tumor Day 18", "setting": "[3]", "value": 72.03}, {"measurement": "Inhibitory rate on tumor (%) Day 10", "setting": "[4]", "value": 79, "unit": "%"}, {"measurement": "Inhibitory rate on tumor (%) Day 24", "setting": "[4]", "value": 95.5, "unit": "%"}, {"measurement": "Activation Efficiencies (%)", "setting": "[5]", "value": 83.3, "unit": "%"}, {"measurement": "Targeting and binding of R1 to cathepsin", "setting": "[6]", "value": "could target and bind to cathepsin"}]}
{"smiles": "CC[C@@]1(O)C(=O)OCc2c1cc1n(c2=O)Cc2cc3cc(OC(=O)OCc4ccc(NC(=O)[C@H](CC(N)=O)NC(=O)[C@H](C)NC(=O)[C@H](C)NC(=O)COCCOC)cc4)ccc3nc2-1", "note": "[Compound S40]", "values": [{"measurement": "inhibition in vivo at 13.2 µmol/kg", "setting": "[4]", "value": 80.5, "unit": "%"}]}
{"smiles": "CC[C@H](C)[C@H](NC(=O)COCCOC)C(=O)N[C@@H](C)C(=O)N[C@@H](CC(N)=O)C(=O)Nc1ccc(COC(=O)Oc2ccc3nc4c(cc3c2)Cn2c-4cc3c(c2=O)COC(=O)[C@]3(O)CC)cc1", "note": "[Compound S36]", "values": [{"measurement": "inhibition in vivo at 13.2 µmol/kg", "setting": "[4]", "value": 52.5, "unit": "%"}]}
{"smiles": "CC[C@@]1(O)C(=O)OCc2c1cc1n(c2=O)Cc2cc3cc(OC(=O)OCc4ccc(NC(=O)[C@H](CC(N)=O)NC(=O)[C@@H](NC(=O)[C@H](C)NC(=O)COCCOC)C(C)C)cc4)ccc3nc2-1", "note": "[Compound S42]", "values": [{"measurement": "inhibition in vivo at 13.2 µmol/kg", "setting": "[4]", "value": 66.6, "unit": "%"}]}
{"smiles": "CC[C@@]1(O)C(=O)OCc2c1cc1n(c2=O)Cc2cc3cc(OC(=O)OCc4ccc(NC(=O)[C@H](CC(N)=O)NC(=O)[C@H](CC(N)=O)NC(=O)[C@@H](NC(=O)COCCOC)[C@@H](C)O)cc4)ccc3nc2-1", "note": "[Compound S31]", "values": [{"measurement": "inhibition in vivo at 13.2 µmol/kg", "setting": "[4]", "value": 46.5, "unit": "%"}]}
{"smiles": "CC[C@@]1(O)C(=O)OCc2c1cc1n(c2=O)Cc2cc3cc(OC(=O)OCc4ccc(NC(=O)[C@H](CC(N)=O)NC(=O)[C@H](CC(N)=O)NC(=O)[C@@H](NC(=O)COCCOC)C(C)C)cc4)ccc3nc2-1", "note": "[Compound S35]", "values": [{"measurement": "inhibition in vivo at 13.2 µmol/kg", "setting": "[4]", "value": 58.6, "unit": "%"}]}
{"smiles": "CC[C@H](C)[C@H](NC(=O)COCCOC)C(=O)N[C@H](C(=O)N[C@@H](CC(N)=O)C(=O)Nc1ccc(COC(=O)Oc2ccc3nc4c(cc3c2)Cn2c-4cc3c(c2=O)COC(=O)[C@]3(O)CC)cc1)C(C)C", "note": "[Compound S38]", "values": [{"measurement": "inhibition in vivo at 13.2 µmol/kg", "setting": "[4]", "value": 46.3, "unit": "%"}]}
{"smiles": "CC[C@@]1(O)C(=O)OCc2c1cc1n(c2=O)Cc2cc3cc(OC(=O)OCc4ccc(NC(=O)[C@H](CC(N)=O)NC(=O)[C@@H](NC(=O)[C@H](C)NC(=O)COCCOC)[C@@H](C)O)cc4)ccc3nc2-1", "note": "[Compound S41]", "values": [{"measurement": "inhibition in vivo at 13.2 µmol/kg", "setting": "[4]", "value": 64.6, "unit": "%"}]}
{"smiles": "CC[C@@]1(O)C(=O)OCc2c1cc1n(c2=O)Cc2cc3cc(OC(=O)OCc4ccc(NC(=O)[C@H](CC(N)=O)NC(=O)[C@@H](NC(=O)[C@@H](NC(=O)COCCOC)[C@@H](C)O)C(C)C)cc4)ccc3nc2-1", "note": "[Compound S30]", "values": [{"measurement": "inhibition in vivo at 13.2 µmol/kg", "setting": "[4]", "value": 47.4, "unit": "%"}]}
{"smiles": "CC[C@@]1(O)C(=O)OCc2c1cc1n(c2=O)Cc2cc3cc(OC(=O)OCc4ccc(NC(=O)[C@H](CC(N)=O)NC(=O)[C@@H](NC(=O)[C@@H](NC(=O)COCCOC)C(C)C)C(C)C)cc4)ccc3nc2-1", "note": "[Compound S34]", "values": [{"measurement": "inhibition in vivo at 13.2 µmol/kg", "setting": "[4]", "value": 46.7, "unit": "%"}]}
{"smiles": "CC[C@@]1(O)C(=O)OCc2c1cc1n(c2=O)Cc2cc3cc(OC(=O)OCc4ccc(NC(=O)[C@H](CC(N)=O)NC(=O)[C@H](CC(N)=O)NC(=O)[C@H](C)NC(=O)COCCOC)cc4)ccc3nc2-1", "note": "[Compound S43]", "values": [{"measurement": "inhibition in vivo at 13.2 µmol/kg", "setting": "[4]", "value": 60.5, "unit": "%"}]}
{"smiles": "CCCCCOC(=O)Nc1nc(=O)n([C@@H]2O[C@H](C)[C@@H](OC(=O)OCc3ccc(NC(=O)[C@H](CC(N)=O)NC(=O)[C@H](C)NC(=O)[C@H](C)NC(=O)CCCCCCC(=O)NO)cc3)[C@H]2O)cc1F", "note": "[Compound S3, 4-N—(N—(N—(N-(8-(N-hydroxylamino)-1,8-octandioic acid-1-monoacyl)-L-alanyl)-L-alanyl)-L-asparaginyl)-amino benzyl alcohol-capecitabine-carbonic acid diester]", "values": [{"measurement": "Inhibitory rate on tumor Day 18", "setting": "[3]", "value": 68.64}, {"measurement": "Inhibitory rate on tumor (%) Day 10", "setting": "[4]", "value": 72, "unit": "%"}, {"measurement": "Inhibitory rate on tumor (%) Day 24", "setting": "[4]", "value": 100, "unit": "%"}, {"measurement": "Activation Efficiencies (%)", "setting": "[5]", "value": 84.8, "unit": "%"}, {"measurement": "Targeting and binding of R1 to MMP2", "setting": "[7]", "value": "could target and bind to metalloprotease MMP2"}]}
{"smiles": "CC[C@@]1(O)C(=O)OCc2c1cc1n(c2=O)Cc2cc3cc(OC(=O)OCc4ccc(NC(=O)[C@H](CC(N)=O)NC(=O)[C@@H](NC(=O)[C@@H](NC(=O)COCCOC)[C@@H](C)O)[C@@H](C)O)cc4)ccc3nc2-1", "note": "[Compound S29]", "values": [{"measurement": "inhibition in vivo at 13.2 µmol/kg", "setting": "[4]", "value": 57.4, "unit": "%"}]}
{"smiles": "CC[C@H](C)[C@H](NC(=O)COCCOC)C(=O)N[C@@H](CC(N)=O)C(=O)N[C@@H](CC(N)=O)C(=O)Nc1ccc(COC(=O)Oc2ccc3nc4c(cc3c2)Cn2c-4cc3c(c2=O)COC(=O)[C@]3(O)CC)cc1", "note": "[Compound S39]", "values": [{"measurement": "inhibition in vivo at 13.2 µmol/kg", "setting": "[4]", "value": 48.4, "unit": "%"}]}
{"smiles": "CC[C@H](C)[C@H](NC(=O)COCCOC)C(=O)N[C@H](C(=O)N[C@@H](CC(N)=O)C(=O)Nc1ccc(COC(=O)Oc2ccc3nc4c(cc3c2)Cn2c-4cc3c(c2=O)COC(=O)[C@]3(O)CC)cc1)[C@@H](C)O", "note": "[Compound S37]", "values": [{"measurement": "inhibition in vivo at 13.2 µmol/kg", "setting": "[4]", "value": 46.7, "unit": "%"}]}
{"smiles": "CC[C@@]1(O)C(=O)OCc2c1cc1n(c2=O)Cc2cc3cc(OC(=O)OCc4ccc(NC(=O)[C@H](CC(N)=O)NC(=O)[C@H](C)NC(=O)[C@@H](NC(=O)COCCOC)C(C)C)cc4)ccc3nc2-1", "note": "[Compound S32]", "values": [{"measurement": "inhibition in vivo at 13.2 µmol/kg", "setting": "[4]", "value": 56.5, "unit": "%"}]}
{"smiles": "CC[C@@]1(O)C(=O)OCc2c1cc1n(c2=O)Cc2cc3cc(OC(=O)OCc4ccc(NC(=O)[C@H](CC(N)=O)NC(=O)[C@@H](NC(=O)[C@@H](NC(=O)COCCOC)C(C)C)[C@@H](C)O)cc4)ccc3nc2-1", "note": "[Compound S33]", "values": [{"measurement": "inhibition in vivo at 13.2 µmol/kg", "setting": "[4]", "value": 50.6, "unit": "%"}]}
